The values below come from ChEMBL document CHEMBL5038635, “Discovery of Salidroside-Derivated Glycoside Analogues as Novel Angiogenesis Agents to Treat Diabetic Hind Limb Ischemia” (J Med Chem, 2022).

Amino acid sequences for entries named in this document (tags omitted).
UniProt Q61221, whole entry: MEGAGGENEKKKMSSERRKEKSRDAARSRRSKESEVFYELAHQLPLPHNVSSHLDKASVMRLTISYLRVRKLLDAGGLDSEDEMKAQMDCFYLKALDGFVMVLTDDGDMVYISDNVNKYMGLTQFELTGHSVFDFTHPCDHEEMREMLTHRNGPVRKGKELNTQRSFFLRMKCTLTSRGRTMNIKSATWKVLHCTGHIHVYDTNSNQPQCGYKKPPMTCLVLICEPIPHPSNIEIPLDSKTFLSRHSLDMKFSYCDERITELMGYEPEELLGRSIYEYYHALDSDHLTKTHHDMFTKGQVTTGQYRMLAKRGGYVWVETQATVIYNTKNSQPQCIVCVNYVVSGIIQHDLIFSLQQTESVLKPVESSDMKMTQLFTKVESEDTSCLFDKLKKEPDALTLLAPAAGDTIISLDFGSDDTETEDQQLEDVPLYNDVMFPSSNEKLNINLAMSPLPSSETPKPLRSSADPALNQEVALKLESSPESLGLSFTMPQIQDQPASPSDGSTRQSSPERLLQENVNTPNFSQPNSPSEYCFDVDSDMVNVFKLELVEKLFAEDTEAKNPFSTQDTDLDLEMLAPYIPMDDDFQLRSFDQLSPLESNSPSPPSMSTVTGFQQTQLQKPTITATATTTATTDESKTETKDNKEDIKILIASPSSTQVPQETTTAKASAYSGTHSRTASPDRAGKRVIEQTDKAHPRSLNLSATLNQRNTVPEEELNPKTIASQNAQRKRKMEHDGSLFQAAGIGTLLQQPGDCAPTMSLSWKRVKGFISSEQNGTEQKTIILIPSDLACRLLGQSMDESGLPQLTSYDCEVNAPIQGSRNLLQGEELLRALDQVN

The test addresses Hypoxia-inducible factor 1-alpha (Mus musculus) (UniProt Q61221). Description: Inhibition of HIF-1alpha in mouse C2C12 cells transfected with HRE-driven firefly luciferase gene assessed as fold change in transcriptional activity at 300 uM pretreated with compound for 12 hr followed by hypoxic condition for 24 hrs by dual luciferase reporter gene assay. It counts as cell-based. The settings on record: time 36.0 hrs. (In general: A reporter such as luciferase makes a cellular process visible.)

Each structure is given as a SMILES string.

As for `COc1ccc(Cc2cccc(O[C@@H]3O[C@H](CO)[C@@H](O)[C@H](O)[C@H]3O)c2)cc1`, the fold change (FC) is 2.5.
